The values that follow are results of earlier work, collected in publication PMC8795197, “Safety and activity of WX-0593 (Iruplinalkib) in patients with ALK- or ROS1-rearranged advanced non-small cell lung cancer: a phase 1 dose-escalation and dose-expansion trial” (Signal Transduction and Targeted Therapy, 2022).

The test system of data set [1] is patients treated with ALK TKIs. As to conditions: cited from earlier work.
Data set [2] relates to NSCLC patients with ALK or ROS1 rearrangement. Conditions: cited from earlier work.
The mark [3] stands for this setting: Grades 1 and 2 adverse reactions.
Where [4] appears, read: ALK+ NSCLC (protocol background).
The mark [5] stands for this setting: ROS1-rearranged NSCLC, phase I, 50 patients.
[6] abbreviates: first-line, randomized phase III vs platinum-double chemotherapy.

Each structure is given as a SMILES string. Like-named read-outs stand apart in the source and are kept apart here.

With `CCc1cc2c(cc1N1CCC(N3CCOCC3)CC1)C(C)(C)c1[nH]c3cc(C#N)ccc3c1C2=O` [Alectinib], in data set [1] (setting [3]), the asthenia is recorded as 11%, the constipation is 15%, the fatigue is listed as 14% and the myalgia is recorded as 17%. In addition, in data set [1], the “dose reduction due to TEAEs, % of patients” value was 16%.

Turning to `C[C@@H](Oc1cc(-c2cnn(C3CCNCC3)c2)cnc1N)c1c(Cl)ccc(F)c1Cl` [Crizotinib], the ORR entry is “around 60%” in data set [2] (ALK rearrangement, prior chemotherapy); 60% in data set [2] (setting [4]); 57% in data set [2] (FIH phase I, 82 patients with ALK-rearranged advanced NSCLC, ALK inhibitor naive); 72% in data set [2] (setting [5]); 74% in data set [2] (setting [6]). Moreover, the PFS is 8-10 months in data set [2] (setting [4]) and 10.9 months in data set [2] (setting [6]). Besides, in data set [2] (FIH phase I, 82 patients with ALK-rearranged advanced NSCLC), the “PFS at 6 months (estimated)” value is reported as 72%. In addition, the “median PFS” value in data set [2] (setting [5]) is reported as 19.2 months. Further, the “diarrhea, % of patients” value in data set [1] is recorded as 48%.
